Antibody variant affinities, Ab-95 light chain, assay 2

Reference: Engelhart et al. 2022, doi:10.1038/s41597-022-01779-4. File: FLAb, binding data.

Target peptide (SARS-CoV-2 spike, HR2 region): PDVDLGDISGINAS

Each scFv is VH, a 15-residue (Gly4Ser)3 linker, VL, as in the parent Ab-95, and differs from it in the CDRs of the light chain only.
VH: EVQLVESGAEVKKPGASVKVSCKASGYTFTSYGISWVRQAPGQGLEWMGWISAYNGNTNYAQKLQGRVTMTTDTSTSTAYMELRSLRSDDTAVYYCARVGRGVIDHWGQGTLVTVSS
VL: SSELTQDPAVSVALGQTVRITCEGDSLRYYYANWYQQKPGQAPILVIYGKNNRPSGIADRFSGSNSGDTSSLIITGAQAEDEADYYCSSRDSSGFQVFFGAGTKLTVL

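The parent was found by panning a naive human phage display library on the peptide. The library (AAYL52) carries one to three amino acid substitutions per variant, with no insertions or deletions. Affinity was read by AlphaSeq, a pooled yeast mating assay with surface-displayed partners. The frequency of each diploid, read from paired DNA barcodes, reflects how well the two displayed proteins bind. Scores were corrected for input abundance and mapped to Kd with protein pairs of known affinity run in the same pool. Each pool was mated in three replicate cultures.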

The parent's light chain CDRs are EGDSLRYYYAN, GKNNRPS, SSRDSSGFQVF; each variant's own CDRs replace them letter for letter.
Every variant below is changed at L27 of the VL (sequential numbering).
The Kd shown is the geometric mean over detected replicates; a lower Kd is a better binder.
"not detected" means that the variant was in the library but no mating with the target was seen in any replicate; the authors take this as a sign of poor binding, and no number exists.

CDR-L1,CDR-L2,CDR-L3,apparent Kd,replicates with signal
EEDSRRYYYAN,GKNNRPS,SSRDSSDFQVF,8.1 µM,2/3
EGDSKRYWYAN,GKLNRPS,SSRDSSGFQVF,14 µM,1/3
EGDSSRYYYAN,GKENRPS,SSRDSSGFQHF,5.5 µM,1/3
EGDSSRYYYAN,GMNNRPS,SSGDSSGFQVF,35 µM,1/3
EGDCDRYYYAN,GKNNRPS,SSRDSSDFQVF,30 µM,3/3
EGDSIRYYYAN,GKNNRPS,SSRDSSLFQVF,4.6 µM,3/3
EGDSGRYYYAN,FKNNRPS,SSRRSSGFQVF,54 µM,1/3
EWDSGRRYYAN,GKNNRPS,SSRDSSGFQVF,680 nM,3/3
EGDPARYYYAN,GHNNRPS,SSRDSSGFQVF,4.4 µM,3/3
EGDSHRYYYAA,LKNNRPS,SSRDSSGFQVF,4.4 µM,3/3
EGDSSRYYYAN,GKDNRPS,SSRDSSGFQVF,3.1 µM,2/3
EGVSKRYWYAN,GKNNRPS,SSRDSSGFQVF,2.8 µM,3/3
EGDSGRYYYAN,GKNNRPS,PSRVSSGFQVF,1.1 µM,2/3
EGDHCRYYYAN,GVNNRPS,SSRDSSGFQVF,3.9 µM,2/3
EGVSCRMYYAN,GKNNRPS,SSRDSSGFQVF,7.8 µM,2/3
EGDVRRWYYAN,GKNNRPS,SSRDSSGFQVF,not detected,0/3
EGDSRRYYYAN,GKNNRPS,SSRDSSGFQVL,2.5 µM,3/3
EGDSPRYYYAN,GKNNRPS,SSRMSKGFQVF,70 µM,3/3
ETDSYRYYYAN,GKNNRPS,SSRHSSGFQVF,not detected,0/3
EGDGIRYYYAF,GKNNRPS,SSRDSSGFQVF,not detected,0/3
EGDMARYYYAN,GKFNRPS,SSRDSSGFQVF,12 µM,2/3
EFDSRRYYYAN,GKNNRPS,SSRDSSGFQSF,1.6 µM,1/3
EGDSVRYYYAN,GKNNRVS,SSRDSSGFQRF,not detected,0/3
EGDSSRYYYAN,GKFNRPS,SSRDSSGFQQF,110 µM,1/3
EGDSVRYYYAN,GKNQRWS,SSRDSSGFQVF,510 nM,3/3
EGDSMRYYYAN,GKNNRPS,SSRESSGFQVF,1.5 µM,2/3
EGDSKWYYYAN,GKNNRPS,SSNDSSGFQVF,5.1 µM,3/3
EGDSWRYYYAN,GKNNRPS,SCRDRSGFQVF,130 nM,3/3
EGMSERYYYAN,SKNNRPS,SSRDSSGFQVF,1.5 µM,1/3
EVDSSRYYYAN,GKNNRPS,SSRMSSGFQVF,4.2 µM,2/3
SGDSPRYYYAN,GKNNRPS,SSRDASGFQVF,2.9 µM,2/3
NGDSHRYYYAN,GKNNRPS,SSRDSSGFMVF,3.2 µM,3/3
EGGCHRYYYAN,GKNNRPS,SSRDSSGFQVF,39 µM,2/3
EGDSHRYYYAN,GKNNRPS,SCGDSSGFQVF,not detected,0/3
EGDSVRGYYAN,GKNNRPS,SSRRSSGFQVF,680 nM,3/3
EGDSIRYYYAN,GKVNRPS,SRRDSSGFQVF,14 µM,2/3
ESDSTRYYYAN,GKNNRPS,NSRDSSGFQVF,3.9 µM,1/3
EGDSWRYYYAN,GKNNRPS,SSLDSSGFQVF,4.0 µM,1/3
EDDSQRYYYAN,GKPNRPS,SSRDSSGFQVF,21 µM,1/3
EGDSSRYYYAM,GKNNRPS,SSRDSSGFQVF,15 µM,1/3
EGDSCRYYDAN,GKNNRPS,SSRDISGFQVF,380 nM,3/3
EGDSFRYYYAN,GKNNRPS,QSMDSSGFQVF,47 µM,1/3
EGDSVRYYYIN,GKNNRPS,SSQDSSGFQVF,46 µM,2/3
EGDSNRYYYAN,GKNNRPS,SSNDSSGFQVF,2.2 µM,2/3
EGDSWRYQYAD,GKNNRPS,SSRDSSGFQVF,11 µM,1/3
EGDSNRYYYAN,GKNNRPF,SSRDSSGFQVF,8.4 µM,2/3
EGDSTRYVYAN,GKFNRPS,SSRDSSGFQVF,13 µM,1/3
EGDSALYYYAN,HKNNRPS,SSRDSSGFQVF,120 µM,1/3
CGDSDRAYYAN,GKNNRPS,SSRDSSGFQVF,11 µM,2/3
EGDSYRYYYAN,GKNNRPS,SSEDSGGFQVF,3.1 µM,1/3
EGDSIRYYYAN,GKNNRPF,SSRDSSGFQVS,5.5 µM,1/3
EGDSNRYMYAN,GKNNRPS,FSRDSSGFQVF,1.4 µM,1/3
EGDSTRYYYAN,FKNNRPS,SSRDSSGFQVS,5.5 µM,2/3
EGDSARYYYAN,GKNNRPS,SSRDSSIFQLF,25 µM,1/3
EGDSARPCYAN,GKNNRPS,SSRDSSGFQVF,51 µM,1/3
EGDSKRYSYAN,GKNNRPS,SGRDSSGFQVF,1.6 µM,3/3
EGDSNRYYNAN,GKNNRES,SSRDSSGFQVF,550 nM,3/3
EGDSNRYYYAN,GKNERPS,SSRDSSGFQVF,790 nM,3/3
EGDHERYYYAN,GKSNRPS,SSRDSSGFQVF,71 µM,1/3
EGDSARYYYAN,GKNNRPS,SSRDESGFQLF,20 µM,2/3
EGDRQRYYYRN,GKNNRPS,SSRDSSGFQVF,3.9 µM,3/3
ETDSWRTYYAN,GKNNRPS,SSRDSSGFQVF,24 µM,2/3
EGDSERYYYAN,GTNNRPS,SSRDSSGFQIF,not detected,0/3
EGDSIRYIYAN,GKNNRPV,SSRDSSGFQVF,1.6 µM,1/3
EGDSKRYYYAN,GANNRPS,ISRDSSGFQVF,not detected,0/3
EGDSPRYYYAE,GKNNVPS,SSRDSSGFQVF,9.2 µM,3/3
EGDTRRYYYAN,GKNNRPS,SSRDSSGFQVF,not detected,0/3

The 11 strongest on average among those seen in every replicate, once more:

CDR-L1	CDR-L2	CDR-L3	apparent Kd	replicates with signal
EGDSWRYYYAN	GKNNRPS	SCRDRSGFQVF	130 nM	3/3
EGDSCRYYDAN	GKNNRPS	SSRDISGFQVF	380 nM	3/3
EGDSVRYYYAN	GKNQRWS	SSRDSSGFQVF	510 nM	3/3
EGDSNRYYNAN	GKNNRES	SSRDSSGFQVF	550 nM	3/3
EGDSVRGYYAN	GKNNRPS	SSRRSSGFQVF	680 nM	3/3
EWDSGRRYYAN	GKNNRPS	SSRDSSGFQVF	680 nM	3/3
EGDSNRYYYAN	GKNERPS	SSRDSSGFQVF	790 nM	3/3
EGDSKRYSYAN	GKNNRPS	SGRDSSGFQVF	1.6 µM	3/3
EGDSRRYYYAN	GKNNRPS	SSRDSSGFQVL	2.5 µM	3/3
EGVSKRYWYAN	GKNNRPS	SSRDSSGFQVF	2.8 µM	3/3
NGDSHRYYYAN	GKNNRPS	SSRDSSGFMVF	3.2 µM	3/3

Background: pairings of library AAYL52 with three empty control strains gave a value in 28% of cases (median 8.2 µM, 5th percentile 800 nM). Values in that range, when seen in few replicates, are hard to tell from nonspecific mating.
In this assay the parent's reference entry averaged 200 nM; its copy inside this library read 180 nM.